These results are taken from PubChem BioAssay AID2235 (The Scripps Research Institute Molecular Screening Center, 2010).

The chains behind the UniProt entries cited, without tags or fusion partners.
UniProt P62136, whole entry: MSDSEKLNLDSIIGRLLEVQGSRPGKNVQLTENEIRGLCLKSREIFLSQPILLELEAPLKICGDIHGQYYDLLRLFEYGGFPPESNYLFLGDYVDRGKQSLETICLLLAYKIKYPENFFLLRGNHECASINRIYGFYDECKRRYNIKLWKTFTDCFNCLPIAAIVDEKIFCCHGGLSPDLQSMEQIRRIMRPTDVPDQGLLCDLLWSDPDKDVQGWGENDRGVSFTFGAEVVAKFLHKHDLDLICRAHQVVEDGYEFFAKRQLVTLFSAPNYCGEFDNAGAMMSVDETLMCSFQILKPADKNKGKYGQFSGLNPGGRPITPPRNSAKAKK

Only a part is listed here, and it is no random draw. Activity calls are given as the source filed them.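 The calls were made as follows: active = inhibition above the mean inhibition of all tested compounds plus 3 SD, computed separately for each screening campaign (cut at about 15% in these data); inactive = the rest.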

This test addresses Serine/threonine-protein phosphatase PP1-alpha catalytic subunit (Homo sapiens) (UniProt P62136). In words: PP1-alpha phosphatase inhibitors, primary screen, counter-screen for PP5 inhibitor project, biochemical, fluorescence, OMFP substrate, single point (AID 2235). Conditions: purified PP1alpha, at 6.7 µM, hits give high values.
As to `COc1ccc(NC2CCN(CCc3ccccc3)CC2)c(OC)c1`, the inhibition is inactive: -2.61%.
Regarding `O=C(NCC1(N2CCCCC2)CCCCC1)c1ccc(F)cc1`, the inhibition is inactive: -4.23%.
The figure for `CCOc1ccc(C)cc1CN(CCCl)CCCl` is inactive: -1.2%; for `Cc1ccc(OCC(C)C)c(CN(CCCl)CCCl)c1` it is inactive: -3.96%; for `CCOC(=O)N1CCC(Nc2cccc(C)c2)CC1` it is inactive: 0.16%.
As for `CSc1ccccc1C(=O)NCC1(N2CCCCC2)CCCCC1`, the inhibition is inactive: -9.96%.
For `CC(C)(C)OC(=O)N1CCC(N(C(=O)c2ccccc2)c2ccc(F)cc2)CC1` the value was inactive: 1.15%.
For `COc1ccc(C(=O)NCC2(N3CCCCC3)CCCCC2)c(OC)c1OC`, the inhibition was inactive: -0.77%.
For `COc1ccc(C(=O)NCC2(N3CCCCC3)CCCCC2)cc1` the value was inactive: -3.97%; for `O=C(NCC1(N2CCCCC2)CCCCC1)c1cccs1`, inactive: -4.41%.
The figure for `O=C(NCC1(N2CCCCC2)CCCCC1)c1ccc(=O)[nH]c1` is inactive: -2.36%; for `COc1ccc(Cl)cc1C(=O)NCC1(N2CCOCC2)CCCCC1` it is inactive: -1.73%.
`N#CC1(Nc2ccccc2)CCN(Cc2ccccc2)CC1`: the inhibition was inactive: -3.95%.
For `O=C(NCC1(N2CCCCC2)CCCCC1)c1ccc(Cl)s1` the value was inactive: 2.66%; for `O=C(OC1CN2CCC1CC2)C1c2ccccc2Oc2ccccc21` (stereo unspecified), inactive: 6.61%; for `CCOC(=O)N1CCC(Nc2ccc(OC)cc2)CC1`, inactive: 0.94%.
For the molecule `Cc1cc(C)cc(N(C(=O)c2ccccc2)C2CCN(C(=O)OC(C)(C)C)CC2)c1`, the inhibition is inactive: 11.1%.
For `O=C(NCC1(N2CCCCC2)CCCCC1)c1ccc(Cl)nc1` the value was inactive: 0.88%; for `O=C(NCC1(N2CCOCC2)CCCCC1)c1cc2ccccc2o1`, inactive: -2.78%; for `COc1cc(OC)c(C(=O)NCC2(N(C)C)CCCCC2)cc1OC`, inactive: -3.83%.
Regarding `CC(C)c1ccc(NC2CCN(C(=O)OC(C)(C)C)CC2)cc1`, the inhibition was inactive: -0.39%.
The figure for `CN(C)c1cccc(C(=O)NCC2(N3CCCCC3)CCCCC2)c1` is inactive: -4.46%.
For `COc1ccc(CN(CCCl)CCCl)cc1Cl` the value was inactive: -2.6%; for `CN1CCC(Nc2cccc(F)c2)CC1`, inactive: 1.48%.
For `O=C(NCC1(N2CCCCC2)CCCCC1)c1cncc(Br)c1` the value was inactive: -1.43%.
As to `N#CC1(Nc2ccccc2)CCN(CCc2ccccc2)CC1`, the inhibition was inactive: 1.91%.
With `CCN1CCC(Nc2ccc(Cl)cc2)CC1`, the inhibition was inactive: -0.39%.
For `O=C(NCC1(N2CCCCC2)CCCCC1)c1cccc([N+](=O)[O-])c1` the value was inactive: -0.4%; for `O=C(NCC1(N2CCCCC2)CCCCC1)c1ccc(OC(F)F)cc1`, inactive: 4.33%.
On to `O=C(NCC1(N2CCOCC2)CCCCC1)c1cc(=O)[nH]c2ccccc12`, for which the inhibition was inactive: -13.3%.
The figure for `COc1cc(C(=O)NCC2(N3CCCCC3)CCCCC2)ccc1OC(F)F` is inactive: -3.76%; for `COc1ccc(NC2CCN(C(=O)OC(C)(C)C)CC2)cc1` it is inactive: 0.17%; for `CN1CCN(CCOC(=O)C(O)(c2ccccc2)c2ccccc2)CC1` it is inactive: -3.49%.
As for `O=C(NCC1(N2CCCCC2)CCCCC1)c1cccc(C(F)(F)F)c1`, the inhibition is inactive: -2.53%.
The figure for `N#Cc1ccc(C(=O)NCC2(N3CCCCC3)CCCCC2)cc1` is inactive: -7.87%; for `CC(C)(C)OC(=O)N1CCC(N(C(=O)c2ccccc2)c2ccc(Cl)cc2)CC1` it is inactive: 0.87%; for `CN(C)C1(CNC(=O)c2cccc(C#N)c2)CCCCC1` it is inactive: -2.8%.
The figure for `CCCN1CCC(Nc2cc(OC)cc(OC)c2)CC1` is inactive: -2.78%.
Turning to `c1ccc(CN2CCC(Nc3ccccc3)CC2)cc1`, the inhibition was inactive: -5.79%.
On to `COc1ccc(C(=O)NCC2(N3CCOCC3)CCCCC2)cc1OC`, for which the inhibition is inactive: -1.25%.
For `O=C(NCC1(N2CCOCC2)CCCCC1)c1cc(Br)ccc1Cl` the value was inactive: -3.28%; for `CCc1cc(C(=O)NCC2(N3CCCCC3)CCCCC2)sc1C`, inactive: -5.07%; for `O=C(OC1CN2CCC1CC2)C1c2ccccc2C=Cc2ccccc21` (stereo unspecified), inactive: -3.35%.
The figure for `CCOC(=O)N1CCC(Nc2ccc(C)cc2)CC1` is inactive: 0.8%.
Turning to `N/C(=N\O)c1c(N)no[n+]1[O-]`, the inhibition is inactive: 1.66%.
The figure for `O=C(O)C1(Nc2ccccc2)CCN(Cc2ccccc2)CC1` is inactive: 8.11%.
As for `CC(C)(C)OC(=O)N1CCC(Nc2ccccc2)CC1`, the inhibition was inactive: -4.35%.
For the molecule `CCCOc1ccc(C(=O)NCC2(N(C)C)CCCCC2)cc1`, the inhibition is inactive: -1.88%.
For `CN1CCC(Nc2ccc(F)c(Cl)c2)CC1` the value was inactive: -3.21%; for `CCOc1ncccc1C(=O)NCC1(N2CCOCC2)CCCCC1`, inactive: -2.68%.
In the case of `CN1CCC(Nc2ccc(Cl)cc2)CC1`, the inhibition was inactive: -3.43%.
As to `CCCOc1ccc(C)cc1CN(CCCl)CCCl`, the inhibition is inactive: -2.99%.
For `COc1cccc(C(=O)N(c2cc(C)cc(C)c2)C2CCN(C(=O)OC(C)(C)C)CC2)c1`, the inhibition was inactive: 2.68%.
For `COc1cc(OC)cc(C(=O)NCC2(N3CCOCC3)CCCCC2)c1` the value was inactive: 0.27%; for `CCC(CO)(C(=O)OC1CN2CCC1CC2)c1ccccc1` (stereo unspecified), inactive: -1.94%.
The figure for `Fc1ccccc1NC1CCN(Cc2ccccc2)CC1` is inactive: -0.12%; for `Cc1ccc(C(=O)NCC2(N3CCCCC3)CCCCC2)o1` it is inactive: -3.73%; for `COc1cc(OC)cc(C(=O)NCC2(N3CCCCC3)CCCCC2)c1` it is inactive: 2.49%.
On to `CN(C)c1ccc(C(=O)NCC2(N3CCCCC3)CCCCC2)cc1`, for which the inhibition is inactive: -1.14%.
Regarding `O=C(NCC1(N2CCCCC2)CCCCC1)c1ccco1`, the inhibition is inactive: -6.71%.
Turning to `CCN1CCC(Nc2cccc(F)c2)CC1`, the inhibition was inactive: 1.28%.
